Test system: eNOS-dependent vasodilation, facialis arteries
Experiment: eNOS-dependent vasodilation (area between curves ± L-NAME) of facialis arteries from treated SS mice
Settings: 3 weeks, ± L-NAME 100 μM
Description: Effects of hE-HMGB1-BP on vasodilation, eNOS-dependent vasodilation, and plasma HMGB1. Townes SS mice were treated daily with hE-HMGB1-BP (Biomatik Corp., Kitchener, Ontario; 2.72 mg/kg/d, subcutaneous injection) for three weeks. On the day of the vasodilation studies, mice were anesthetized with isoflurane (1-3%), subjected to thoracotomy, and euthanized by exsanguination. A hypodermic needle was inserted into the heart's right side, and blood was drawn into EDTA. Plasma was separated by centrifugation. The plasma was divided into aliquots and stored at −80 °C until analysis for HMGB1 using ELISA kits from Tecan (30164033, Männedorf, Switzerland) as described. Facialis arteries were isolated by microdissection, cannulated, and pressurized to 60 mmHg. Changes in vasodilation of (5Z)-7-[(1R,4S,5S,6R)-6-[(1E,3S)-3-hydroxy-1-octenyl]-2-oxabicyclo[2.2.1]hept-5-yl]-5-heptenoic acid (U46619)-preconstricted, pressurized facialis arteries were determined by video microscopy in response to acetylcholine (Ach) (10-7-10-4 M) as before. After determining vasodilation in the absence of N(G)-nitro-L-arginine methyl ester (L-NAME), the bath's MOPS physiological buffer [CaC12 2H2O (2.0 mM), EDTA (0.02 mM), glucose (5.0 mM), KCl (4.7 mM), MgSO4·7H2O (1.17 mM), MOPS (3.0 mM), NaCl (145 mM), NaH2PO4OH2O (1.2 mM), pyruvic acid (2.0 mM)] was replaced with 37 °C MOPS physiological buffer containing L-NAME (100 μM) and Ach-induced relaxation responses determined once again, as above. eNOS-dependent vasodilation was determined from the area between curves (ABC). The area between vasodilation curves in the absence and presence of L-NAME was calculated using the area under the curve function in Prism GraphPad 9.5.0 after correction of paired data for negative relaxation responses. […]
Effects of inhibiting GSNOR on vasodilation in SS mice. […] Relaxation responses to Ach (10-7 to 10 4 M) were determined in MOPS physiological buffer in the absence and presence of L-NAME by video microscopy as described. […]

| Compound | eNOS-dependent vasodilation (ABC) (2.72 mg/kg/d, subcutaneous, mean±SD, SS+PBS 24.7±15.4, AA 83.2±37.7) [arbitrary units] | eNOS-dependent vasodilation (in words) (SS mice, KYC 3 mg/kg/d or N6022 1 mg/kg/d in PBS with 1% DMSO) |
| --- | --- | --- |
| CC[C@H](C)[C@H](NC(=O)CNC(=O)[C@H](CCCCN)NC(=O)[C@@H](NC(=O)[C@H](CC(=O)O)NC(=O)[C@H](Cc1ccccc1)NC(=O)[C@H](CC(N)=O)NC(=O)[C@H](CC(N)=O)NC(=O)[C@H](C)NC(=O)[C@H](CO)NC(=O)[C@H](Cc1c[nH]cn1)NC(=O)[C@H](C)NC(=O)CNC(=O)CNC(=O)[C@H](CCCNC(=N)N)NC(=O)[C@H](CC(C)C)NC(=O)[C@H](CC(C)C)NC(=O)[C@H](CCCNC(=N)N)NC(=O)[C@H](CCCCN)NC(=O)[C@H](CCCNC(=N)N)NC(=O)[C@H](CC(C)C)NC(=O)[C@H](CCCCN)NC(=O)[C@H](CCCNC(=N)N)NC(=O)[C@H](CC(C)C)NC(C)=O)C(C)C)C(N)=O | 90.5±19.3 | – |
| CC(=O)N[C@@H](CCCCN)C(=O)N[C@@H](Cc1ccc(O)cc1)C(=O)N[C@@H](CS)C(N)=O | – | improved eNOS-dependent vasodilation |

— patent US20260382690A1, “Dual-Domain Peptide for Depleting HMGB1 from the Circulation via Liver HSPG System” (published 2026)
